For assay [1], the system named is membrane fractions of P. aeruginosa (PAO1). Kind of assay: ELISA binding to membrane fractions and solubilized membrane proteins of P. aeruginosa PAO1. Also on record: species or system Pseudomonas aeruginosa. Conditions: human cytokines.
The subject of assay [2] is rhlI transcription in PAO1. Kind of assay: Northern blot of rhlI gene expression in PAO1. It is filed as cell-based, Pseudomonas aeruginosa.

In the case of IL-2: human cytokine, the “binding to P. aeruginosa cell membranes” value in assay [1] is reported as “No binding”.

TNF-α: tumor necrosis factor alpha: the “binding to P. aeruginosa cell membranes” value in assay [1] is reported as “No binding”. Besides, the rhlI transcription entry in assay [2] is listed as “but not”.
